These are literature values, as cited in patent US20100320428A1, “GASEOUS DIELECTRICS WITH LOW GLOBAL WARMING POTENTIALS” (priority 2006, published 2010).

For the data set the following is noted: boiling point; Table 2, preferred dielectric compounds; cited from earlier work.

With Fluorine nitrate, the “MY BP” value was −46.2 °C.
In the case of Difluoramine, the “MY BP” value was −23.2 °C.
With `O=S(=O)(F)C(F)(F)F`, the “MY BP” value is −21.7 °C.
On to Phosphorus trifluoride, for which the “MY BP” value was −101.5 °C.
`FP(F)(F)(F)F`: the “MY BP” value was −84.5 °C.
For `O=C(N(F)F)N(F)F`, the “MY BP” value is −20.0 °C.
Regarding `FP(F)C(F)(F)F`, the “MY BP” value is −43.0 °C.
